## AlphaSeq binding of Ab-14 light chain variants to a spike HR2 peptide

Antigen: PDVDLGDISGINAS, a 14-residue peptide of the SARS-CoV-2 spike HR2 region.

Parent scFv Ab-14: VH joined to VL by a (GGGGS)3 linker. Changes lie in the light chain CDRs alone.
VH: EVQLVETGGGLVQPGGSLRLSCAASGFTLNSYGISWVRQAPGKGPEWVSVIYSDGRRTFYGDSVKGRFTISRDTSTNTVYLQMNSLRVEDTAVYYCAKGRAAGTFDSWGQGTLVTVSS
VL: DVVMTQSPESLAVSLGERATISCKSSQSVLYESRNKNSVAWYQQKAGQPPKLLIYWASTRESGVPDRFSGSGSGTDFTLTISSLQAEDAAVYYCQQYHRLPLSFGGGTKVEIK

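Phage display of a naive human antibody library on the peptide gave the parent. This is the validation round: designs drawn from the data on random variants, tested in the same kind of assay. Their group label is 14L_En_Gen (En: ensemble of fine-tuned language models; Gen: genetic algorithm). The scFvs were displayed on barcoded MATa yeast, the peptide on MATalpha yeast. Binding brings cells together so that they mate, and sequencing counts the barcode pairs among the diploids. Read counts were normalised to the haploid input and turned into Kd by a linear fit to BCL2-family pairs of known affinity, for each replicate. The assay was run in six technical replicates.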

The parent's light chain CDRs are KSSQSVLYESRNKNSVA, WASTRES, QQYHRLPLS; each variant's own CDRs replace them letter for letter. The read-out is the apparent dissociation constant on a log10 scale (nM): the lower, the stronger. An entry "n.d." has no value in the source: the pair was not observed among the diploids in that replicate. This suggests poor binding but is not conclusive. Background: pairings of all light chain designs with three empty control strains gave a value in 4% of cases (median 2.64, 5th percentile 1.59). Values in that range, when seen in few replicates, are hard to tell from nonspecific mating. Also given: how often the same scFv was detected with the empty control strains, with their mean in brackets.

CDR-L1 | CDR-L2 | CDR-L3 | replicates, log10 nM | control signals
HITYGMNVAGRHSSSIA | QAEERAK | QQYDRLPLI | 0.68 / 1.62 / 0.70 / 0.76 / 1.63 / 1.50 | 1/18 (4.04)
TISQMSTLFSQSINNVA | EVSTRLN | QQYDRLPLS | 2.17 / 1.23 / 1.00 / 0.79 / 0.91 / 0.99 | 0/18
KIGMTLNTLMHKQNNVA | DLVQREN | QQYFRLPLS | 0.77 / 0.36 / 0.21 / 0.40 / 0.30 / 0.21 | 0/18
KLTNVTGTEKVLGNNVA | EMETREV | QQYNRLPLS | n.d. / 1.02 / 0.92 / 0.82 / 1.18 / 2.25 | 0/18
TISQMTSLFSQSINNVA | EVSTREK | QQYDRLPLS | 0.21 / 1.02 / 1.14 / -0.15 / 0.27 / 0.39 | 1/18 (2.16)
MIAQMLGWESNKINSVA | QANLRTE | QQYDRLPLI | 1.84 / 1.16 / 2.57 / 1.81 / 2.18 / 1.60 | 0/18
MIHESYGLMQVKQSSIA | DNSTRED | QQYDRLPLS | n.d. / n.d. / n.d. / n.d. / n.d. / n.d. | 2/18 (2.02)
TISGVMMQLSHSKNNVA | EVSTRLD | QQYVRLPLE | 0.66 / 0.38 / 0.29 / 0.47 / 0.36 / 0.35 | 0/18
KVSEFMRGLTQRKDSIA | DNVTRQN | QQYDRLPLS | 1.27 / 1.04 / 1.01 / 0.62 / 1.16 / 1.01 | 1/18 (3.85)
MISQMYNMGQFAINSVA | QASQRNE | QQYDRLPLI | 1.91 / 1.91 / 2.10 / 1.88 / 3.24 / 2.25 | 1/18 (1.58)
KISSMVKVGMTHGNSIA | EEATRSD | QQYHRLPLS | 0.34 / 0.25 / -0.07 / 0.06 / 0.07 / 0.69 | 0/18
TLSQLTGHMSMSKNNVA | EMETREN | QQYDRLPLS | 1.10 / n.d. / 0.30 / 0.38 / n.d. / 1.96 | 0/18
TISQMTSLFSQTINNVA | EVSTREN | QQYDRLPLA | 0.54 / 0.34 / 1.08 / 0.20 / 0.44 / 0.63 | 1/18 (2.24)
KIGATLNQLMHKKNNVA | DLVEREN | QQYFRLPLS | n.d. / n.d. / n.d. / n.d. / n.d. / n.d. | 0/18
TIGAMLRYGSRNKNNVA | EVSERLN | QQYDRLPLL | 0.10 / 0.91 / -0.06 / 0.29 / 0.56 / 0.27 | 0/18
KLASVTGTEKVRGNNVA | EMETREK | QQYNRLPLS | 0.38 / 0.30 / 0.39 / -0.05 / -0.03 / 0.52 | 0/18
MISQLYNMGQFAINSVA | QASTRND | QQYDRLPLM | 1.62 / 0.84 / 1.37 / 1.27 / 0.71 / 1.20 | 0/18
QIYQAMHTLSQVKDNVA | DVNERGQ | QQYYRLPLS | 0.23 / 0.49 / 0.39 / 0.54 / 0.53 / 0.49 | 2/18 (3.15)
KVSEFMKGLMSRQDSIA | DNNTRGS | QQYDRLPLS | 1.48 / 1.49 / 1.94 / 1.86 / 2.76 / 1.74 | 0/18
KIGATLNTLMHTKNNVA | DLVTRED | QQYHRLPLS | 0.23 / -0.04 / 0.04 / -0.23 / 0.19 / 0.16 | 2/18 (2.96)
TISGVMTQMQHSKNNVA | EVSMRLD | QQYFRLPLE | 1.55 / 0.51 / 0.98 / 1.86 / 0.38 / 0.82 | 0/18
MISQLYNMGQFAINSVA | QATLRNE | QQYDRLPLM | n.d. / 2.30 / 1.89 / 1.04 / 2.52 / 2.27 | 0/18
KITGTMRFEQKASNNIA | EVTQRSK | QQYYRLPLA | 0.92 / 0.66 / 0.35 / 0.55 / 0.67 / 0.97 | 0/18
KIGMTLNQLMHQKQNVA | DLVTREN | QQYTRLPLS | 1.04 / 0.76 / 0.14 / 0.31 / 0.69 / 0.44 | 0/18
KVSVFPRGLMSRQDSIA | DNVTRSN | QQYDRLPLS | 4.55 / 2.68 / 2.23 / 2.00 / n.d. / 3.13 | 2/18 (2.61)
TIGQTLMYGMRNRSNVA | EVSERLN | QQYDRLPLI | n.d. / n.d. / n.d. / n.d. / n.d. / n.d. | 1/18 (2.26)
IVSQLMLWGMHVKNSIA | EAVTRVN | QQYERLPLF | 1.74 / n.d. / n.d. / n.d. / n.d. / n.d. | 1/18 (2.76)
MVSQIMLWGLHAKNSIA | EAQMRLN | QQYDRLPLF | n.d. / n.d. / n.d. / n.d. / n.d. / n.d. | 0/18
HMSMLTLMGQRHVNSVA | QMTTREN | QQYDRLPLS | 0.92 / 0.83 / 0.70 / 0.81 / 1.07 / 0.87 | 0/18
HITYGMMVHGRHSKSIA | QAEERAK | QQYDRLPLA | 1.18 / 0.95 / 0.78 / 0.76 / 0.76 / 1.16 | 0/18
MLSQMTGLGQHAKNSVA | QASMRFN | QQYFRLPLI | 1.90 / 1.11 / 2.07 / 0.88 / 1.06 / 0.92 | 0/18
MISQVTGLGQRHRNNVA | QTSMREN | QQYDRLPLV | n.d. / n.d. / 2.08 / n.d. / 2.43 / 2.00 | 2/18 (1.64)
MMSQVTGMGQRHRNNVA | QTSEREP | QQYDRLPLI | 0.92 / 0.85 / 0.90 / 0.81 / 0.91 / 0.88 | 2/18 (2.88)
IVSQLMLWGMHAKNSIA | EAEKRIN | QQYHRLPLM | n.d. / n.d. / n.d. / n.d. / n.d. / n.d. | 0/18
MLSQMWALGMKVKNSVA | QASIRFN | QQYDRLPLI | n.d. / n.d. / n.d. / n.d. / n.d. / n.d. | 0/18
MLSQMWALGMKAKNSVA | QAQMRFN | QQYERLPLI | n.d. / n.d. / n.d. / n.d. / n.d. / n.d. | 0/18
HMSMLTLGGLKNRNSVA | QMTTREN | QQYDRLPLS | 0.93 / 0.86 / 0.74 / 1.07 / 0.88 / 0.88 | 1/18 (2.28)
VISELYNQATGMRNNVA | NNATRED | QQYDRLPLS | 2.96 / 2.53 / 1.74 / 2.54 / 1.24 / 2.32 | 2/18 (2.22)
IVSQLMLWGMKAKNSIA | EAQTRVN | QQYDRLPLI | n.d. / n.d. / 2.39 / n.d. / n.d. / n.d. | 0/18
KISQMQRVGSTHGNSIA | EEATRAN | QQYHRLPLS | 0.49 / 0.31 / 0.31 / 0.08 / 0.13 / 0.50 | 3/18 (3.69)

Top 2 of the variants detected in all replicates, tightest first:

CDR-L1 | CDR-L2 | CDR-L3 | replicates, log10 nM | control signals
KIGATLNTLMHTKNNVA | DLVTRED | QQYHRLPLS | 0.23 / -0.04 / 0.04 / -0.23 / 0.19 / 0.16 | 2/18 (2.96)
KISSMVKVGMTHGNSIA | EEATRSD | QQYHRLPLS | 0.34 / 0.25 / -0.07 / 0.06 / 0.07 / 0.69 | 0/18

Of ten entries with the parent sequence, four were seen in most replicates (averages 0.34 to 2.37), three in one and three in none, so single entries are noisy. The authors averaged sequences with at least three values out of six and counted those with two or fewer as poor binders. The range of this assay differs from that of the first round, and the authors advise against merging the two.

Values reported by Li et al. 2023, doi:10.1038/s41467-023-39022-2 (FLAb copy).